{
  "sequences": {"note": "Sequences of proteins named here, by UniProt entry; tags and fusion partners are left off. Residues count along the entry.", "UniProt P15328, 25-234": "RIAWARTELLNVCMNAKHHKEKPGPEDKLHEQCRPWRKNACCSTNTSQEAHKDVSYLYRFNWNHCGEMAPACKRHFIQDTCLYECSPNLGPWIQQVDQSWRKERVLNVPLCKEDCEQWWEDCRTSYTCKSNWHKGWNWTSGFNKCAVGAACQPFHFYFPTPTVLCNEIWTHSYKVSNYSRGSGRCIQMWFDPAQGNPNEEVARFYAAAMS"},
  "source": "patent US20260232826A1",
  "about": "“ANTIBODY-DRUG CONJUGATES AND THEIR USES” (Mablink Bioscience, priority 2022, published 2026)",
  "key": {"[1]": {"target": "T1, recombinant human FRα protein (Homo sapiens, UniProt P15328)", "T1 construct": "purchased Sino Biological 11241-H08H", "assay": "Recombinant FRα-binding affinity by ELISA (human)", "details": "FIG. 4A/4B", "method": "Sandwich ELISA assays are performed using 96-well high-binding ELISA plates (Corning Inc., New York, NY, USA, Cat #3590). Plates are coated using 100 µL/well of recombinant human FRα protein (Sino Biological cat #11241-H08H) in PBS (pH 7.4) at 2 μg/mL and incubated overnight at 4° C. After 2 washes with PBS-T (PBS+0.05% Tween-20), the plates are blocked with 200 μL/well of incubation buffer (PBS-T+0.1% BSA) for 1 h at room temperature. The plates are washed 4 times with PBS-T, and 100 μL of a threefold dilution series of tested compound (antibody or antibody-drug conjugate) is added. Then, the plates are incubated for 2 h at room temperature in the dark. After 5 washes with PBS-T, plates are incubated 1 h at room temperature with 100 μL/well of a goat anti-human IgG (H+L) HRP conjugated antibody (Jackson Immunoresearch cat #109-035-088), previously diluted 1:250000 in incubation buffer. […] Peroxidase activity is stopped with 0.18M H2SO4 and absorbance is read at 450 nm (reference wavelength 650 nm) using a Thermo Scientific MultiSkan EX microplate reader. […]\nSandwich ELISA assays were performed using 96-well high-binding ELISA plates (Corning Inc., New York, NY, USA, Cat #3590). […] Peroxidase activity was stopped with 0.18M H2SO4 and absorbance was read at 450 nm (reference wavelength 650 nm) using a Thermo Scientific MultiSkan EX microplate reader. […]"}, "IGROV-1 cancer model": {"system": "IGROV-1 cancer model", "assay": "In vivo efficacy and tumor re-implantation challenge, IGROV-1 xenograft", "parameters": "species or system SCID mice", "details": "group treated at 12 mg/kg IV once, re-implanted at day 94", "source_text": "(§1) Four to five-week-old female CB-17 severe combined immunodeficient (SCID) mice are obtained and quarantined for 7 days prior to study initiation. Mice are inoculated subcutaneously with cells (5-10×10^6 cells per mouse) resuspended in PBS (OV-90, SW-620, KB, BT-474 cell lines) or 50% BD Matrigel (Corning®) in PBS (PA-1, IGROV-1, OVCAR-3, NCI-H2110 cell lines). When average tumor volume reached about 120-150 mm^3 mice are randomized (typically 7 mice per group) and treated by a single (unless stated otherwise) intravenous injection of PBS (negative control) or investigated antibody-drug conjugate. Tumor volumes are measured every 3-5 days using a caliper device (length×width) and calculated using the following formula V=4/3×π×R3, where R represents the radius. Mice are sacrificed when the tumor volume exceeded 1500 mm^3 or in case of ulceration of the tumor.\n(§2) Four to five-week-old female CB-17 severe combined immunodeficient (SCID) mice were obtained from Janvier labs (Le Genest-Saint-Isle, France) and quarantined for 7 days prior to study initiation. […] Tumor volumes were measured every 3-5 days using a caliper device (length×width) and calculated using the following formula V=4/3×π×R^3, where R represents the radius. […]"}, "[2]": {"target": "T2, recombinant mouse FRα protein (Mus musculus, UniProt P35846)", "T2 construct": "purchased Sino Biological 50573-M08H", "assay": "Recombinant FRα-binding by ELISA (mouse)", "details": "FIG. 4B", "method": "Sandwich ELISA assays were performed using 96-well high-binding ELISA plates (Corning Inc., New York, NY, USA, Cat #3590). Plates were coated using 100 μL/well of recombinant human FRα protein (Sino Biological cat #11241-H08H); recombinant cynomolgus FRα protein (Sino Biological cat #90950-C08H); recombinant rat FRα protein (Sino Biological cat #81073-R08H) or recombinant mouse FRα protein (Sino Biological cat #50573-M08H) in PBS (pH 7.4) at 2 μg/mL and incubated overnight at 4° C. After 2 washes with PBS-T (PBS+0.05% Tween-20), the plates were blocked with 200 μL/well of incubation buffer (PBS-T+0.1% BSA) for 1 h at room temperature. The plates were washed 4 times with PBS-T, and 100 μL of a threefold dilution series of tested compound (antibody or antibody-drug conjugate) was added. Then, the plates were incubated for 2 h at room temperature in the dark. After 5 washes with PBS-T, plates were incubated 1 h at room temperature with 100 μL/well of a goat anti-human IgG (H+L) HRP conjugated antibody (Jackson Immunoresearch cat #109-035-088), previously diluted 1:250000 in incubation buffer. After 5 washes with PBS-T, TMB substrate solution (Thermo-Fisher cat #N301) was added. Peroxidase activity was stopped with 0.18M H2SO4 and absorbance was read at 450 nm (reference wavelength 650 nm) using a Thermo Scientific MultiSkan EX microplate reader. […]"}, "FIGURE 19": {"assay": "FIGURE 19", "source_text": "Table printed on a drawing sheet, FIGURE 19\nThe patent's description of the figure: FIG. 19 represents in vivo rat pharmacokinetic assessment of total mAb, total ADC and free exatecan sub-components of conjugates, according to example 14.\nFirst reader's note: Pharmacokinetic parameters refer to the Total ADC analyte of each conjugate."}, "[3]": {"details": "rat, in vivo, iv, 5 mg/kg"}, "PA-1 cancer model": {"system": "PA-1 cancer model", "assay": "In vivo efficacy, PA-1 xenograft", "parameters": "species or system SCID mice", "details": "IV once at 3 mg/kg (FIG. 14)", "source_text": "as §1, §2"}},
  "note": "Like-named read-outs stand apart in the source and are kept apart here.",
  "data": [
    {"molecule": "M-SORAV (conjugate) heavy: QVQLVQSGAEVVKPGASVKISCKASGYTFTGYFMNWVKQSPGQSLEWIGRIHPYDGDTFYNQKFQGKATLTVDKSSNTAHMELLSLTSEDFAVYYCTRYDGSRAMDYWGQGTTVTVSSASTKGPSVFPLAPSSKSTSGGTAALGCLVKDYFPEPVTVSWNSGALTSGVHTFPAVLQSSGLYSLSSVVTVPSSSLGTQTYICNVNHKPSNTKVDKKV[gap - human IgG1 Fc] light: DIVLTQSPLSLAVSLGQPAIISCKASQSVSFAGTSLMHWYHQKPGQQPRLLIYRASNLEAGVPDRFSGSGSKTDFTLTISPVEAEDAATYYCQQSREYPYTFGGGTKLEIKRTVAAPSVFIFPPSDEQLKSGTASVVCLLNNFYPREAKVQWKVDNALQSGNSQESVTEQDSKDSTYSLSSTLTLSKADYEKHKVYACEVTHQGLSSPVTKSFNRGEC", "values": [
      {"measurement": "recombinant human FRα binding (ELISA), in words", "setting": "[1]", "value": "No significant loss of binding"}
    ]},
    {"molecule": "F-LALA-VA-EXA (conjugate, N-methyl) heavy: EVQLVESGGGVVQPGRSLRLSCSASGFTFSGYGLSWVRQAPGKGLEWVAMISSGGSYTYYADSVKGRFAISRDNAKNTLFLQMDSLRPEDTGVYFCARHGDDPAWFAYWGQGTPVTVSSASTKGPSVFPLAPSSKSTSGGTAALGCLVKDYFPEPVTVSWNSGALTSGVHTFPAVLQSSGLYSLSSVVTVPSSSLGTQTYICNVNHKPSNTKVDKKV[gap - human IgG1 Fc with changes] light: DIQLTQSPSSLSASVGDRVTITCSVSSSISSNNLHWYQQKPGKAPKPWIYGTSNLASGVPSRFSGSGSGTDYTFTISSLQPEDIATYYCQQWSSYPYMYTFGQGTKVEIKRTVAAPSVFIFPPSDEQLKSGTASVVCLLNNFYPREAKVQWKVDNALQSGNSQESVTEQDSKDSTYSLSSTLTLSKADYEKHKVYACEVTHQGLSSPVTKSFNRGEC", "values": [
      {"measurement": "tumor regrowth rechallenge (re-implantation of IGROV-1 cells)", "setting": "IGROV-1 cancer model", "value": "no tumor growth was observed after re-implantation"},
      {"measurement": "mouse recombinant FRα binding (ELISA)", "setting": "[2]", "value": "does not bind"},
      {"measurement": "AUC0-inf", "setting": "FIGURE 19", "value": 3143, "unit": "µM/day"},
      {"measurement": "Clearance rate", "setting": "FIGURE 19", "value": 5.5, "unit": "mL/day/kg"},
      {"measurement": "Vss (steady-state Vd)", "setting": "FIGURE 19", "value": 0.13, "unit": "L/kg"},
      {"measurement": "half-life", "setting": "FIGURE 19", "value": 15.2, "unit": "days"},
      {"measurement": "clearance rates", "setting": "[3]", "value": "slow clearance rates"},
      {"measurement": "half-life", "setting": "[3]", "value": "13 to 15", "unit": "days"},
      {"measurement": "efficacy, PA-1 xenograft", "setting": "PA-1 cancer model", "value": "outperformed M-SORAV"},
      {"measurement": "recombinant human FRα binding (ELISA), in words", "setting": "[1]", "value": "binds equally"}
    ]}
  ]
}
